Measurements published in US9981906B2, “Trans-clomiphene metabolites and uses thereof” (Repros Therapeutics Inc., priority 2011, dated 2018).

Tested on: cryopreserved hepatocytes from Beagle dog
Assay: Metabolite profile of Androxal in cryopreserved Beagle dog hepatocytes
Type: in vitro ADME
Settings: incubations containing 30 mM Androxal for 1 hour; LC/MS
Procedure: A study was conducted to determine the metabolic profile of Androxal® in cryopreserved hepatocytes from Sprague-Dawley rat, Beagle dog, cynomolgus monkey, and human. The liver is the main site of drug metabolism and the full complement of hepatic drug metabolizing enzymes (including liver enzymes of the CYP P450 family) are maintained within the intact cell. Isolated liver hepatocytes constitute a physiologically relevant experimental model for the evaluation of liver-related drug properties such as metabolism. Cyropreservation of the hepatocytes greatly enhances their availability for studies.
Primary hepatocytes isolated from several donors for each animal species and five human donors were pooled according to species and cryopreserved. The hepatocytes were thawed, subjected to Percoll density gradient centrifugation to remove debris and counted to determine yield. Viability was measured using Trypan blue exclusion. The hepatocytes were diluted with CYP assay buffer (Krebs-Hensleit Buffer) to prepare a 2× cell suspension of 2.0×10^6 viable cells/ml. […]
The incubations were terminated as follows: Metabolic positive control incubations were terminated by adding an equal volume of methanol. […] The samples were either immediately analyzed or stored in cryovials at −70°±10 C until analysis.
All samples were analyzed by reverse-phase HPLC. […]

SMILES: CCN(CC)CCOc1ccc(C(c2ccc(O)c(O)c2)C(Cl)c2ccccc2)cc1 (stereo not shown) [C26H30NO3Cl]
- relative amount, Beagle dog: 117.3
